In ChEMBL document CHEMBL1137133, “Defining determinant molecular properties for the blockade of the apamin-sensitive SKCa channel in guinea-pig hepatocytes: the influence of polarizability and molecular geometry” (Bioorg Med Chem Lett, 2004):

Assay: Inhibition of apamin-sensitive SKCa channel of guinea-pig hepatocytes
Assay type: cell-based, Cavia porcellus
Conditions: hepatocyte

## CCN(CC)CCCC(C)Nc1ccnc2cc(Cl)ccc12 (stereo unspecified) [CHLOROQUINE]
  IC50: 200 µM
